From IntAct's records for PubMed 35512704

B1: RAC-alpha serine/threonine-protein kinase (Homo sapiens), P31749 (parent)
chain: MSDVAIVKEGWLHKRGEYIKTWRPRYFLLKNDGTFIGYKERPQDVDQREAPLNNFSVAQCQLMKTERPRPNTFIIRCLQWTTVIERTFHVETPEEREEWTTAIQTVADGLKKQEEEEMDFRSGSPSDNSGAEEMEVSLAKPKHRVTMNEFEYLKLLGKGTFGKVILVKEKATGRYYAMKILKKEVIVAKDEVAHTLTENRVLQNSRHPFLTALKYSFQTHDRLCFVMEYANGGELFFHLSRERVFSEDRARFYGAEIVSALDYLHSEKNVVYRDLKLENLMLDKDGHIKITDFGLCKEGIKDGATMKTFCGTPEYLAPEVLEDNDYGRAVDWWGLGVVMYEMMCGRLPFYNQDHEKLFELILMEEIRFPRTLGPEAKSLLSGLLKKDPKQRLGGGSEDAKEIMQHRFFAGIVWQHVYEKKLSPPFKPQVTSETDTRYFDEEFTAQMITITPPDQDDSMECVDSERRPHFPQFSYSASGTA

Variants of: B1
Settings: with fzr1_human FZR1
MSDVAIVKEGWLHKRGKYIKTWRPRYFLLKNDGTFIGYKERPQDVDQREAPLNNFSVAQCQLMKTERPRPNTFIIRCLQWTTVIERTFHVETPEEREEWTTAIQTVADGLKKQEEEEMDFRSGSPSDNSGAEEMEVSLAKPKHRVTMNEFEYLKLLGKGTFGKVILVKEKATGRYYAMKILKKEVIVAKDEVAHTLTENRVLQNSRHPFLTALKYSFQTHDRLCFVMEYANGGELFFHLSRERVFSEDRARFYGAEIVSALDYLHSEKNVVYRDLKLENLMLDKDGHIKITDFGLCKEGIKDGATMKTFCGTPEYLAPEVLEDNDYGRAVDWWGLGVVMYEMMCGRLPFYNQDHEKLFELILMEEIRFPRTLGPEAKSLLSGLLKKDPKQRLGGGSEDAKEIMQHRFFAGIVWQHVYEKKLSPPFKPQVTSETDTRYFDEEFTAQMITITPPDQDDSMECVDSERRPHFPQFSYSASGTA [E17K] was tested, and the “effect of a mutation on the interaction” value was “causing an interaction”.

Variants of: B1
Settings: with gata1_human GATA1, P15976
MSDVAIVKEGWLHKRGKYIKTWRPRYFLLKNDGTFIGYKERPQDVDQREAPLNNFSVAQCQLMKTERPRPNTFIIRCLQWTTVIERTFHVETPEEREEWTTAIQTVADGLKKQEEEEMDFRSGSPSDNSGAEEMEVSLAKPKHRVTMNEFEYLKLLGKGTFGKVILVKEKATGRYYAMKILKKEVIVAKDEVAHTLTENRVLQNSRHPFLTALKYSFQTHDRLCFVMEYANGGELFFHLSRERVFSEDRARFYGAEIVSALDYLHSEKNVVYRDLKLENLMLDKDGHIKITDFGLCKEGIKDGATMKTFCGTPEYLAPEVLEDNDYGRAVDWWGLGVVMYEMMCGRLPFYNQDHEKLFELILMEEIRFPRTLGPEAKSLLSGLLKKDPKQRLGGGSEDAKEIMQHRFFAGIVWQHVYEKKLSPPFKPQVTSETDTRYFDEEFTAQMITITPPDQDDSMECVDSERRPHFPQFSYSASGTA [E17K] was tested, and the “effect of a mutation on the interaction” value was “causing an interaction”.

Variants of: B1
Settings: with p66b_human GATAD2B
In the case of MSDVAIVKEGWLHKRGKYIKTWRPRYFLLKNDGTFIGYKERPQDVDQREAPLNNFSVAQCQLMKTERPRPNTFIIRCLQWTTVIERTFHVETPEEREEWTTAIQTVADGLKKQEEEEMDFRSGSPSDNSGAEEMEVSLAKPKHRVTMNEFEYLKLLGKGTFGKVILVKEKATGRYYAMKILKKEVIVAKDEVAHTLTENRVLQNSRHPFLTALKYSFQTHDRLCFVMEYANGGELFFHLSRERVFSEDRARFYGAEIVSALDYLHSEKNVVYRDLKLENLMLDKDGHIKITDFGLCKEGIKDGATMKTFCGTPEYLAPEVLEDNDYGRAVDWWGLGVVMYEMMCGRLPFYNQDHEKLFELILMEEIRFPRTLGPEAKSLLSGLLKKDPKQRLGGGSEDAKEIMQHRFFAGIVWQHVYEKKLSPPFKPQVTSETDTRYFDEEFTAQMITITPPDQDDSMECVDSERRPHFPQFSYSASGTA [E17K], the “effect of a mutation on the interaction” value is reported as “causing an interaction”.

Variants of: B1
Settings: with gna11_human GNA11, P29992
For MSDVAIVKEGWLHKRGKYIKTWRPRYFLLKNDGTFIGYKERPQDVDQREAPLNNFSVAQCQLMKTERPRPNTFIIRCLQWTTVIERTFHVETPEEREEWTTAIQTVADGLKKQEEEEMDFRSGSPSDNSGAEEMEVSLAKPKHRVTMNEFEYLKLLGKGTFGKVILVKEKATGRYYAMKILKKEVIVAKDEVAHTLTENRVLQNSRHPFLTALKYSFQTHDRLCFVMEYANGGELFFHLSRERVFSEDRARFYGAEIVSALDYLHSEKNVVYRDLKLENLMLDKDGHIKITDFGLCKEGIKDGATMKTFCGTPEYLAPEVLEDNDYGRAVDWWGLGVVMYEMMCGRLPFYNQDHEKLFELILMEEIRFPRTLGPEAKSLLSGLLKKDPKQRLGGGSEDAKEIMQHRFFAGIVWQHVYEKKLSPPFKPQVTSETDTRYFDEEFTAQMITITPPDQDDSMECVDSERRPHFPQFSYSASGTA [E17K], the “effect of a mutation on the interaction” value was “causing an interaction”.

Variants of: B1
Settings: with gna13_human GNA13, Q14344
In the case of MSDVAIVKEGWLHKRGKYIKTWRPRYFLLKNDGTFIGYKERPQDVDQREAPLNNFSVAQCQLMKTERPRPNTFIIRCLQWTTVIERTFHVETPEEREEWTTAIQTVADGLKKQEEEEMDFRSGSPSDNSGAEEMEVSLAKPKHRVTMNEFEYLKLLGKGTFGKVILVKEKATGRYYAMKILKKEVIVAKDEVAHTLTENRVLQNSRHPFLTALKYSFQTHDRLCFVMEYANGGELFFHLSRERVFSEDRARFYGAEIVSALDYLHSEKNVVYRDLKLENLMLDKDGHIKITDFGLCKEGIKDGATMKTFCGTPEYLAPEVLEDNDYGRAVDWWGLGVVMYEMMCGRLPFYNQDHEKLFELILMEEIRFPRTLGPEAKSLLSGLLKKDPKQRLGGGSEDAKEIMQHRFFAGIVWQHVYEKKLSPPFKPQVTSETDTRYFDEEFTAQMITITPPDQDDSMECVDSERRPHFPQFSYSASGTA [E17K], the “effect of a mutation on the interaction” value is reported as “causing an interaction”.

Variants of: B1
Settings: with h33_human H3-3A
MSDVAIVKEGWLHKRGKYIKTWRPRYFLLKNDGTFIGYKERPQDVDQREAPLNNFSVAQCQLMKTERPRPNTFIIRCLQWTTVIERTFHVETPEEREEWTTAIQTVADGLKKQEEEEMDFRSGSPSDNSGAEEMEVSLAKPKHRVTMNEFEYLKLLGKGTFGKVILVKEKATGRYYAMKILKKEVIVAKDEVAHTLTENRVLQNSRHPFLTALKYSFQTHDRLCFVMEYANGGELFFHLSRERVFSEDRARFYGAEIVSALDYLHSEKNVVYRDLKLENLMLDKDGHIKITDFGLCKEGIKDGATMKTFCGTPEYLAPEVLEDNDYGRAVDWWGLGVVMYEMMCGRLPFYNQDHEKLFELILMEEIRFPRTLGPEAKSLLSGLLKKDPKQRLGGGSEDAKEIMQHRFFAGIVWQHVYEKKLSPPFKPQVTSETDTRYFDEEFTAQMITITPPDQDDSMECVDSERRPHFPQFSYSASGTA [E17K] was tested, and the “effect of a mutation on the interaction” value was “causing an interaction”.

Variants of: B1
Settings: with hdac1_human HDAC1
With MSDVAIVKEGWLHKRGKYIKTWRPRYFLLKNDGTFIGYKERPQDVDQREAPLNNFSVAQCQLMKTERPRPNTFIIRCLQWTTVIERTFHVETPEEREEWTTAIQTVADGLKKQEEEEMDFRSGSPSDNSGAEEMEVSLAKPKHRVTMNEFEYLKLLGKGTFGKVILVKEKATGRYYAMKILKKEVIVAKDEVAHTLTENRVLQNSRHPFLTALKYSFQTHDRLCFVMEYANGGELFFHLSRERVFSEDRARFYGAEIVSALDYLHSEKNVVYRDLKLENLMLDKDGHIKITDFGLCKEGIKDGATMKTFCGTPEYLAPEVLEDNDYGRAVDWWGLGVVMYEMMCGRLPFYNQDHEKLFELILMEEIRFPRTLGPEAKSLLSGLLKKDPKQRLGGGSEDAKEIMQHRFFAGIVWQHVYEKKLSPPFKPQVTSETDTRYFDEEFTAQMITITPPDQDDSMECVDSERRPHFPQFSYSASGTA [E17K] the “effect of a mutation on the interaction” value was “causing an interaction”.
